Results reported in US20070122395A1, “Genetic and pharmacological regulation of antidepressant-sensitive biogenic amine transporters through PKG/p38 map kinase” (Vanderbilt University, priority 2005, published 2007).
Like-named read-outs stand apart in the source and are kept apart here.

By UniProt entry, the sequences of proteins in these tests, tags left out.
UniProt P31652, whole entry: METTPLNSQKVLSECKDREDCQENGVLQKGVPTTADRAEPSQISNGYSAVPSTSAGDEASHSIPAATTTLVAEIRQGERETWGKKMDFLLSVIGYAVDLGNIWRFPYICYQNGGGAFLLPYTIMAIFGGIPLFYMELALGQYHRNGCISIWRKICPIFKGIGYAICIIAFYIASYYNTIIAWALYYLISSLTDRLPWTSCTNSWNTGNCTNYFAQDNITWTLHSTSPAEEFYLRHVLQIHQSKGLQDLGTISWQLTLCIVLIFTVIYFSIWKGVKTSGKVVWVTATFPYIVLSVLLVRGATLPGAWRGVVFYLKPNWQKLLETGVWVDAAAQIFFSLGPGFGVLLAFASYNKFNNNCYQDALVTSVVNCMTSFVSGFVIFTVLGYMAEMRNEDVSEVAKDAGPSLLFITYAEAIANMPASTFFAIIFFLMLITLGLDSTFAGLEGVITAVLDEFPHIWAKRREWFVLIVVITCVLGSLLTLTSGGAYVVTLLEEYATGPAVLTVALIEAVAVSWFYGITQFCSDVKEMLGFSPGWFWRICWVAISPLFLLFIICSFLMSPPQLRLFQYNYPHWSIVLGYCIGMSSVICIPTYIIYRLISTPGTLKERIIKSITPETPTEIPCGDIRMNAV

Key:
[1] = target: T1, native SERT in RN46A cells (Rattus norvegicus, UniProt P31652); experiment: [3H]5-HT transport assay in RN46A cells; assay type: cell-based
T1 construct: derived from rat E13 raphenucleus, that expresses native SERT; endogenous in cells; host or cells: RN46A cells

[2] = test system: Ala56 homozygous lymphocyte lines; experiment: 5-HT uptake in genotyped lymphocyte lines; assay type: cell-based, human
[3] = test system: native SERT in human platelets; conditions: Zhu et al. (2004a); cited from earlier work
[4] = test system: rat SERT expressed by RBL-2H3 cells; experiment: [3H]5-HT transport assay in RBL-2H3 cells; assay type: cell-based
hSERT = conditions: CHO cells, 10-min anisomycin
[5] = test system: Gly56Ala heterozygous lymphocytes; experiment: 5-HT uptake in genotyped lymphocyte lines; assay type: cell-based, human; conditions: Gly56Ala heterozygous cells
[6] = test system: native SERT in human platelets; conditions: anisomycin 1 μm, 10 min
[7] = test system: lymphocytes homozygous for the Gly variant (hSERT Gly56); experiment: 5-HT uptake in genotyped lymphocyte lines; assay type: cell-based, human
SERT in RBL-2H3 cells = target: T2, SERT in RBL-2H3 cells (Rattus norvegicus, UniProt P31652); experiment: [125I]RTI-55 binding to intact RBL-2H3 cells; assay type: cell-based
T2 construct: As with rat SERT expressed by RBL-2H3 cells; host or cells: RBL-2H3 cells (intact cells, 4° C.)

## COc1ccc(C[C@H]2NC[C@H](O)[C@H]2OC(C)=O)cc1 [anisomycin]
[1]; 10 min treatment
  stimulation of 5-HT transport: dose-dependently stimulated 5-HT uptake
[1]; anisomycin
  change in maximal transport capacity (Vmax): no significant change
[1]; read-out: SERT Km for 5-HT, anisomycin 1 μm 10 min
  Km: 0.396 ± 0.08 µM
[2]
  sensitivity of 5-HT uptake to activator: lacked sensitivity
[3]
  5-HT uptake after anisomycin: stimulated 5-HT uptake in platelets
[4]; 10-min pretreatment
  concentration at which effect became inhibitory: 25 μm
  concentration of peak stimulation: 1 μm
[4]; RBL-2H3, anisomycin
  change in maximal transport capacity (Vmax): no significant change
[4]; RBL-2H3, anisomycin, H2O2 20 μm
  stimulation of 5-HT transport activity: dose- and time-dependent stimulation
[4]; anisomycin 1 μm
  time of decline to basal levels: ≤ 30 min
  time of peak stimulation of 5-HT transport: 10 min
[4]; read-out: SERT Km for 5-HT, RBL-2H3, anisomycin 1 μm 10 min
  Km: 0.628 ± 0.07 µM
hSERT
  anisomycin-modulated 5-HT uptake: SB203580-sensitive elevation in 5-HT uptake
[5]
  sensitivity of 5-HT uptake to activator: intermediate sensitivity
[6]
  5-HT uptake after anisomycin: SB203580-sensitive increase in 5-HT uptake
[7]
  stimulation of 5-HT transport: stimulated uptake activity
SERT in RBL-2H3 cells; acute treatment
  total SERT (paroxetine-displaceable [125I]RTI-55 binding): does not change
SERT in RBL-2H3 cells; anisomycin 1 μm, fostriecin 5 nM, NECA 1 μm, 10 min
  SERT surface density (5-HT-displaceable [125I]RTI-55 binding): does not impact
